This test concerns the target renin (Homo sapiens, UniProt P00797). As to the kind of experiment: in vitro test of Nussberger et al.: formation of angiotensin I in human plasma, determined by radio-immunoassay. The conditions noted are these: read-out: IC50 values; concentration of inhibitor which reduces the formation of angiotensin I in human plasma by 50%. On the procedure: The effect of renin inhibitors is detected inter alia experimentally by means of in vitro tests where the reduction in the formation of angiotensin I is measured in various systems (human plasma, purified human renin together with synthetic or natural renin substrate). The following in vitro test of Nussberger et al. (1987) J. Cardiovascular Pharmacol., Vol. 9, pp. 39-44, is used, inter alia. This test measures the formation of angiotensin I in human plasma. The amount of angiotensin I formed is determined in a subsequent radio-immunoassay. The effect of inhibitors on the formation of angiotensin I is tested in this system by adding various concentrations of these substances. The IC50 is defined as the concentration of the particular inhibitor which reduces the formation of angiotensin I by 50%. The compounds of the present invention show inhibitory effects in the in vitro systems at minimal concentrations of about 10^−6 to about 10^−10 mol/l.

The chains behind the UniProt entries cited, without tags or fusion partners. Residues count along the entry.
UniProt P00797, 67-406 limits assumed: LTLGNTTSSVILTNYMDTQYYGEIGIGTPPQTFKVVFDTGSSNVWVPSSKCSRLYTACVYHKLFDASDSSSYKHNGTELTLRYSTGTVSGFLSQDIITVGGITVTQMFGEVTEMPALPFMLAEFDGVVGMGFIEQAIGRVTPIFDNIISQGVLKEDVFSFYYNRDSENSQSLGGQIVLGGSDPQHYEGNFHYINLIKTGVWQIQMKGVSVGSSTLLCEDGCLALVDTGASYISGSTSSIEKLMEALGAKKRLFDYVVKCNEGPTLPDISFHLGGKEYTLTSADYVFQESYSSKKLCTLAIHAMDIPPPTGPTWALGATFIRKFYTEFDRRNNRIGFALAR

pIC50: −log10 of the molar value.

With `COCCCn1cc(C)c2ccc(C[C@@H](C[C@H](N)[C@@H](O)C[C@H](C(=O)NC[C@@H]3[C@H]4COC[C@@H]34)C(C)C)C(C)C)cc21`, the pIC50 is 8.89.
For the molecule `COCCCn1nc(C)c2ccc(C[C@@H](C[C@H](N)[C@@H](O)C[C@H](C(=O)N[C@H]3[C@@H]4COC[C@@H]43)C(C)C)C(C)C)cc21`, the pIC50 is 9.30.
The result for `COCCCc1cn(C)c2ccc(C[C@@H](C[C@H](N)[C@@H](O)C[C@H](C(=O)NC[C@@H]3CCCO3)C(C)C)C(C)C)cc12` reads 8.28.
Turning to `COCCCn1cc(C)c2ccc(C[C@@H](C[C@H](N)[C@@H](O)C[C@H](C(=O)N[C@H]3[C@@H]4COC[C@@H]43)C(C)C)C(C)C)cc21`, the pIC50 is 8.77.

The values are drawn from patent US8071651B2, “5-amino-4-hydroxy-7-(imidazo [1,2-A] pyridin-6-ylmethyl)-8-methyl-nonamide derivatives and related compounds as renin inhibitors for the treatment of hypertension” (Novartis AG, priority 2005, dated 2011).
